Results published in US10059688B2, “Protein tyrosine kinase modulators and methods of use” (BETTA PHARMACEUTICALS CO., LTD., priority 2013, dated 2018).

Tested on: A549 (EGFR WT) NSCLC cells
Experiment: Cell proliferation assay (MTS cell viability)
Format: cell-based
Conditions: Homo sapiens, 72 h, 3 days of exposure

COc1cc(Nc2ncc(Cl)c(Nc3ccccc3C(=O)C(=O)N(C)C)n2)ccc1N1CCN(C)CC1 [Example 61, 2-(2-(5-chloro-2-(3-methoxy-4-(4-methylpiperazin-1-yl)phenylamino)pyrimidin-4-ylamino)phenyl)-N,N-dimethyl-2-oxoacetamide]
IC50: 740 nM
